pEC50, pKi: −log10 of the molar value.
Tests used:
Conditions in all cases: pH 7.4
[1] = molecular target: T1, Kappa-type opioid receptor (Homo sapiens, UniProt P41145)
[2] = molecular target: Kappa-type opioid receptor [D138A] (Homo sapiens, UniProt P41145, D138A)
[3] = molecular target: T2, Kappa-type opioid receptor [D138N] (Homo sapiens, UniProt P41145, D138N)
[4] = molecular target: T3, Kappa-type opioid receptor [E297A] (Homo sapiens, UniProt P41145, E297A)
[5] = molecular target: T4, Kappa-type opioid receptor [H291A] (Homo sapiens, UniProt P41145, H291A)
[6] = molecular target: T5, Kappa-type opioid receptor [H291F] (Homo sapiens, UniProt P41145, H291F)
[7] = molecular target: T6, Kappa-type opioid receptor [I135A] (Homo sapiens, UniProt P41145, I135A)
[8] = molecular target: T7, Kappa-type opioid receptor [I294A] (Homo sapiens, UniProt P41145, I294A)
[9] = molecular target: T8, Kappa-type opioid receptor [I316A] (Homo sapiens, UniProt P41145, I316A)
[10] = molecular target: T9, Kappa-type opioid receptor [K200A] (Homo sapiens, UniProt P41145, K200A)
[11] = molecular target: T10, Kappa-type opioid receptor [K212A] (Homo sapiens, UniProt P41145, K212A)
[12] = molecular target: T11, Kappa-type opioid receptor [K227A] (Homo sapiens, UniProt P41145, K227A)
[13] = molecular target: T12, Kappa-type opioid receptor [M142A] (Homo sapiens, UniProt P41145, M142A)
[14] = molecular target: T13, Kappa-type opioid receptor [M226A] (Homo sapiens, UniProt P41145, M226A)
[15] = molecular target: T14, Kappa-type opioid receptor [Q115A] (Homo sapiens, UniProt P41145, Q115A)
[16] = molecular target: T15, Kappa-type opioid receptor [Y119A] (Homo sapiens, UniProt P41145, Y119A)
[17] = molecular target: T16, Kappa-type opioid receptor [Y119F] (Homo sapiens, UniProt P41145, Y119F)
[18] = molecular target: T17, Kappa-type opioid receptor [Y139A] (Homo sapiens, UniProt P41145, Y139A)
[19] = molecular target: T18, Kappa-type opioid receptor [Y139F] (Homo sapiens, UniProt P41145, Y139F)
[20] = molecular target: T19, Kappa-type opioid receptor [Y312A] (Homo sapiens, UniProt P41145, Y312A)
[21] = molecular target: T20, Kappa-type opioid receptor [Y312F] (Homo sapiens, UniProt P41145, Y312F)
[22] = molecular target: T21, Kappa-type opioid receptor [Y313A] (Homo sapiens, UniProt P41145, Y313A)
[23] = molecular target: T22, Kappa-type opioid receptor [Y313F] (Homo sapiens, UniProt P41145, Y313F)
[24] = molecular target: Kappa-type opioid receptor [Y320A] (Homo sapiens, UniProt P41145, Y320A)
[25] = molecular target: T23, Kappa-type opioid receptor [Y320F] (Homo sapiens, UniProt P41145, Y320F)
[26] = molecular target: T24, Kappa-type opioid receptor [Y66A] (Homo sapiens, UniProt P41145, Y66A)
[27] = molecular target: T1, Kappa-type opioid receptor; remark: listed apart in the source
[28] = molecular target: T2, Kappa-type opioid receptor [D138N]; remark: listed apart in the source
[29] = molecular target: T3, Kappa-type opioid receptor [E297A]; remark: listed apart in the source
[30] = molecular target: T4, Kappa-type opioid receptor [H291A]; remark: listed apart in the source
[31] = molecular target: T5, Kappa-type opioid receptor [H291F]; remark: listed apart in the source
[32] = molecular target: T6, Kappa-type opioid receptor [I135A]; remark: listed apart in the source
[33] = molecular target: T7, Kappa-type opioid receptor [I294A]; remark: listed apart in the source
[34] = molecular target: T8, Kappa-type opioid receptor [I316A]; remark: listed apart in the source
[35] = molecular target: T9, Kappa-type opioid receptor [K200A]; remark: listed apart in the source
[36] = molecular target: T10, Kappa-type opioid receptor [K212A]; remark: listed apart in the source
[37] = molecular target: T11, Kappa-type opioid receptor [K227A]; remark: listed apart in the source
[38] = molecular target: T12, Kappa-type opioid receptor [M142A]; remark: listed apart in the source
[39] = molecular target: T13, Kappa-type opioid receptor [M226A]; remark: listed apart in the source
[40] = molecular target: T14, Kappa-type opioid receptor [Q115A]; remark: listed apart in the source
[41] = molecular target: T15, Kappa-type opioid receptor [Y119A]; remark: listed apart in the source
[42] = molecular target: T16, Kappa-type opioid receptor [Y119F]; remark: listed apart in the source
[43] = molecular target: T17, Kappa-type opioid receptor [Y139A]; remark: listed apart in the source
[44] = molecular target: T18, Kappa-type opioid receptor [Y139F]; remark: listed apart in the source
[45] = molecular target: T19, Kappa-type opioid receptor [Y312A]; remark: listed apart in the source
[46] = molecular target: T20, Kappa-type opioid receptor [Y312F]; remark: listed apart in the source
[47] = molecular target: T21, Kappa-type opioid receptor [Y313A]; remark: listed apart in the source
[48] = molecular target: T22, Kappa-type opioid receptor [Y313F]; remark: listed apart in the source
[49] = molecular target: T23, Kappa-type opioid receptor [Y320F]; remark: listed apart in the source
[50] = molecular target: T24, Kappa-type opioid receptor [Y66A]; remark: listed apart in the source

Sequences of proteins named here, by UniProt entry; tags and fusion partners are left off.
UniProt P41145, whole entry D138A, looked up: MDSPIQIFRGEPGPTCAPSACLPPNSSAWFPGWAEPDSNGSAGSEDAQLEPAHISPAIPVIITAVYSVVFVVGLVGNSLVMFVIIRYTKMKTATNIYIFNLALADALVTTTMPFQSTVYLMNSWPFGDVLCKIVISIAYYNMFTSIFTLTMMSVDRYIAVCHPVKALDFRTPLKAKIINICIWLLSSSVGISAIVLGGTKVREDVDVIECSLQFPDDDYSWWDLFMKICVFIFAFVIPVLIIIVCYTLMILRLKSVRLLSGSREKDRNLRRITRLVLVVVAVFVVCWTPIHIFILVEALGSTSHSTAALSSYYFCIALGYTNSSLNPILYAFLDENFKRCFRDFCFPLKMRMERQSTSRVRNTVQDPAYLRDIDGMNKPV
UniProt P41145, whole entry D138N, looked up: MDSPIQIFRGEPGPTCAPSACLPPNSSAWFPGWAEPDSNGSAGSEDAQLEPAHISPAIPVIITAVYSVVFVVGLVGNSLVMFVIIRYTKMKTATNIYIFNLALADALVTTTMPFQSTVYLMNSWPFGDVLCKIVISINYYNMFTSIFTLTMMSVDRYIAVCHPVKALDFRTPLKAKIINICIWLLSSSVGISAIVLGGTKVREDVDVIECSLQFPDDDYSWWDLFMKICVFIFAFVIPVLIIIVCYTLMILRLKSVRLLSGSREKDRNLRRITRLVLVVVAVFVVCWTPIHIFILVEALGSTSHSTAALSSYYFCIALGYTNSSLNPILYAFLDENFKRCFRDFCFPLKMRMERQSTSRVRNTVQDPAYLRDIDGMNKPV
UniProt P41145, whole entry E297A, looked up: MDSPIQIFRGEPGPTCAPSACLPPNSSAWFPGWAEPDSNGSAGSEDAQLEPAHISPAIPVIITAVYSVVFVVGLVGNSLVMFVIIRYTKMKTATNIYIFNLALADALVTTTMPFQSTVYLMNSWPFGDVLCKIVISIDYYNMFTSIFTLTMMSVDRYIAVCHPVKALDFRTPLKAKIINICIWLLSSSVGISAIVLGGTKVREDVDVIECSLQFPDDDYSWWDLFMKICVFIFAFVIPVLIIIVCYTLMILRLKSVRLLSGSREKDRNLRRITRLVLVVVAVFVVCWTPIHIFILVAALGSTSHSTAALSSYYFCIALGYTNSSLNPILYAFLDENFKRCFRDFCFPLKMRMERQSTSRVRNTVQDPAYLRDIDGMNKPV
UniProt P41145, whole entry H291A, looked up: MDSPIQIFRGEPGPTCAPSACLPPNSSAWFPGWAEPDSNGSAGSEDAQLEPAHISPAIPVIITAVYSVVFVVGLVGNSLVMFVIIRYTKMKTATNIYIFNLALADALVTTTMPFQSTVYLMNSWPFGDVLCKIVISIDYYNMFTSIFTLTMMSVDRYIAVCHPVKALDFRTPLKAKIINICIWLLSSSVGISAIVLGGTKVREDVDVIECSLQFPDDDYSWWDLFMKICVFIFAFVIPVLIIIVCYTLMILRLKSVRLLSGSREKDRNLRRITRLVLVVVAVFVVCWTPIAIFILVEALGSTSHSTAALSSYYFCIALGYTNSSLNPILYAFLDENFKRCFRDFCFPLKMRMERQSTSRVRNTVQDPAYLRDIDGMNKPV
UniProt P41145, whole entry H291F, looked up: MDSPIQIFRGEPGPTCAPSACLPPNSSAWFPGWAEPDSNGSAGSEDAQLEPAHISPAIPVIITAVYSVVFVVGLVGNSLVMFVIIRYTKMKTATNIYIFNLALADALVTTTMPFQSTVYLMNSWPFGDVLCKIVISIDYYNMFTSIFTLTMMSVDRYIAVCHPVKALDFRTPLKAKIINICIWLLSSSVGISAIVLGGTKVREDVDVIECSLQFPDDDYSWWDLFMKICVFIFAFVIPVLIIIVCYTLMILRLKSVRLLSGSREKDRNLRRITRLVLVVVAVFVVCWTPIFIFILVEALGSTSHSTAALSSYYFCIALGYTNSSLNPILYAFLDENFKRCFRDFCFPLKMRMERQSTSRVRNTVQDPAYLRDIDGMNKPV
UniProt P41145, whole entry I135A, looked up: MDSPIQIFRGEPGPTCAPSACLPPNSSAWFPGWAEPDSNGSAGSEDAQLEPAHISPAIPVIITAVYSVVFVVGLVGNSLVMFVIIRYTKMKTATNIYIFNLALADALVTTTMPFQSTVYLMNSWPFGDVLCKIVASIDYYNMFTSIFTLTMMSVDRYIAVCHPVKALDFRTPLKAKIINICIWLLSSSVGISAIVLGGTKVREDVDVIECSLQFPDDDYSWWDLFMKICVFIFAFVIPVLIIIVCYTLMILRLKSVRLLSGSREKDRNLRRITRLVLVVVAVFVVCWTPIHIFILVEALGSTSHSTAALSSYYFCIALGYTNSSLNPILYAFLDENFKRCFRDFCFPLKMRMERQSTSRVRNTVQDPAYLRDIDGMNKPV
UniProt P41145, whole entry I294A, looked up: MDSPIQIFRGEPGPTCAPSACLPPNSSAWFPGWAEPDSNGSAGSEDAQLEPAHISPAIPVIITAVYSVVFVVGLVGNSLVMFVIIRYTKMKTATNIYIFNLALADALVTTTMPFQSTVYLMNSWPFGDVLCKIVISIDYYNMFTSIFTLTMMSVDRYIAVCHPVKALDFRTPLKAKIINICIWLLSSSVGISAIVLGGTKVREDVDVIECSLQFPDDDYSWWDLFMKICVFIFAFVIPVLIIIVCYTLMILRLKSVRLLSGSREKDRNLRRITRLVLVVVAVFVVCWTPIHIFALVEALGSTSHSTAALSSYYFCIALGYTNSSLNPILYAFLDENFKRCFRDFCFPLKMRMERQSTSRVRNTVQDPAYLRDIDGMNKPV
UniProt P41145, whole entry I316A, looked up: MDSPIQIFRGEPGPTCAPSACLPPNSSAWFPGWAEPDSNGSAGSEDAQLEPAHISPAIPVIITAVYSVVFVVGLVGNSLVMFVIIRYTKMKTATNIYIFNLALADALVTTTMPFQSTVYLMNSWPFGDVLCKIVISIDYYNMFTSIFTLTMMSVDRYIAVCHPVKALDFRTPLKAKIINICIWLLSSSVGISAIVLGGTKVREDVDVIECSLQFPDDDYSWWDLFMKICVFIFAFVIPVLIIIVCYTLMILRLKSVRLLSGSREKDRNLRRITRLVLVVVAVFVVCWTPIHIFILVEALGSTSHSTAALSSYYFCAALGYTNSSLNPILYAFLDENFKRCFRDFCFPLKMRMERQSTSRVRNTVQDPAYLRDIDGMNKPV
UniProt P41145, whole entry K200A, looked up: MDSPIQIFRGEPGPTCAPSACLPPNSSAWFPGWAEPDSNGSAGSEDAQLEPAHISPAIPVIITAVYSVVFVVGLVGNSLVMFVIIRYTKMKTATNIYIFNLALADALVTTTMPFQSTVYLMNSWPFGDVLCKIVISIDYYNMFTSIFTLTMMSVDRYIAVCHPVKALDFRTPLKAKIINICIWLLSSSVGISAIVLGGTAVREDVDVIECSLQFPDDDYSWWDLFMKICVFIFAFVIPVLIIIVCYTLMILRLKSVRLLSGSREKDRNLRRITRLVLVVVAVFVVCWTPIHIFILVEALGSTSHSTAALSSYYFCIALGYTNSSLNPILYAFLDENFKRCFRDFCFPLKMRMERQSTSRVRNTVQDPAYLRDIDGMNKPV
UniProt P41145, whole entry L212A: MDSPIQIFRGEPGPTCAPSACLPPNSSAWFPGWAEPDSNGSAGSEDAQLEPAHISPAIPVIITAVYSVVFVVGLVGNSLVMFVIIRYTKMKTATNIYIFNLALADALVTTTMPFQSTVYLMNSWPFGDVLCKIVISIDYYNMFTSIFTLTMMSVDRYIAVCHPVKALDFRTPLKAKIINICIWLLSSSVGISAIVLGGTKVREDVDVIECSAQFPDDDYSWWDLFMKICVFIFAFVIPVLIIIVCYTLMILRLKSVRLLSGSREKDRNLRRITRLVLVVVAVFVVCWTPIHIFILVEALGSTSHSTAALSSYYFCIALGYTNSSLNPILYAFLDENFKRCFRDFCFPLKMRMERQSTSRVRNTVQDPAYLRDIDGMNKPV
UniProt P41145, whole entry K227A, looked up: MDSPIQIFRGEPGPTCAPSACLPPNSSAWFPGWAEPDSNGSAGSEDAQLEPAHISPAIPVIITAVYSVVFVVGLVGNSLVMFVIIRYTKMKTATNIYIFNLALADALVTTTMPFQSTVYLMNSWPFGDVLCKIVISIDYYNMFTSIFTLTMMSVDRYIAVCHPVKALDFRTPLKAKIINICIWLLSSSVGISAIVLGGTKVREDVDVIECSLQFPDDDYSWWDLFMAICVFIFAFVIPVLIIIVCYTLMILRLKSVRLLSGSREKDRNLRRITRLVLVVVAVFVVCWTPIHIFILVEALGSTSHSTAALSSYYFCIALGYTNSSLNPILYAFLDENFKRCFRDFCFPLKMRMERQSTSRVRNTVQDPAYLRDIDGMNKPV
UniProt P41145, whole entry M142A, looked up: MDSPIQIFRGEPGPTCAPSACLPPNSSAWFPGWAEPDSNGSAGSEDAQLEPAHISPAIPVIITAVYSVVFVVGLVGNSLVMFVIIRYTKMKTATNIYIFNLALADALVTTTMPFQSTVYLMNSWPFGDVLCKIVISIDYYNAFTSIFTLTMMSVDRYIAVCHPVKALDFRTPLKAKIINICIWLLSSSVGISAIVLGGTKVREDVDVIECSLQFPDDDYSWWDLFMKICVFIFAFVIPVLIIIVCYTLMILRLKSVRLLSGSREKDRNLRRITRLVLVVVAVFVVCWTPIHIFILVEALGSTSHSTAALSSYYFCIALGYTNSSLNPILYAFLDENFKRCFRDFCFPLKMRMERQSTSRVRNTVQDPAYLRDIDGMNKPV
UniProt P41145, whole entry M226A, looked up: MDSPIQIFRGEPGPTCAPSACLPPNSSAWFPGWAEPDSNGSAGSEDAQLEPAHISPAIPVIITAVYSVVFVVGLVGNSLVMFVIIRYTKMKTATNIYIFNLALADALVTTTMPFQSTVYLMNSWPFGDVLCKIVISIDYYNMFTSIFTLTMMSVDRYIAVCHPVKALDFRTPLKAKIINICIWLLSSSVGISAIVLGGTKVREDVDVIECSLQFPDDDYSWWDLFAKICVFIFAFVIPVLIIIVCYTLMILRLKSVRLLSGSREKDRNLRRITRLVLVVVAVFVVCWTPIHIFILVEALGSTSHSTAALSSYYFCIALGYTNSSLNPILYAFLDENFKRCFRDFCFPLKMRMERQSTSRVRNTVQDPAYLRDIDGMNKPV
UniProt P41145, whole entry Q115A, looked up: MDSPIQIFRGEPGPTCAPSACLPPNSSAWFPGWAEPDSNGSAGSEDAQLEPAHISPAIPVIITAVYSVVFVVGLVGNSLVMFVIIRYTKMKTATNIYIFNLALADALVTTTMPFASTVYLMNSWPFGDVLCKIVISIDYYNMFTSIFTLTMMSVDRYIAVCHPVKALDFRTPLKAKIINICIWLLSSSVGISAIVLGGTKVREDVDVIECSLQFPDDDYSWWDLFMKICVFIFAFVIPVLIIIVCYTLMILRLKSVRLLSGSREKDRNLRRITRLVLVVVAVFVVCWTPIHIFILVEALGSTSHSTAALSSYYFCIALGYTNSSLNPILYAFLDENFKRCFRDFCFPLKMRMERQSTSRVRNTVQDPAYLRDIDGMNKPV
UniProt P41145, whole entry Y119A, looked up: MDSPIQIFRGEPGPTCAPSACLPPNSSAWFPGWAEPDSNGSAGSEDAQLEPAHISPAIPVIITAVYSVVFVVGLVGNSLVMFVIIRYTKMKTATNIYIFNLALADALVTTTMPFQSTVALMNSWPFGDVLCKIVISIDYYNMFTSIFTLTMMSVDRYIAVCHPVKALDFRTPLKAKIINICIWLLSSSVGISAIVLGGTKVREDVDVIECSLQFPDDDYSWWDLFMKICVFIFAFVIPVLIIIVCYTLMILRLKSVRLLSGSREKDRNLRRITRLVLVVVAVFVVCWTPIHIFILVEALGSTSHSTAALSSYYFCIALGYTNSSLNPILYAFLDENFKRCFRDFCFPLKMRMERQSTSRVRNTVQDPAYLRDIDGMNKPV
UniProt P41145, whole entry Y119F, looked up: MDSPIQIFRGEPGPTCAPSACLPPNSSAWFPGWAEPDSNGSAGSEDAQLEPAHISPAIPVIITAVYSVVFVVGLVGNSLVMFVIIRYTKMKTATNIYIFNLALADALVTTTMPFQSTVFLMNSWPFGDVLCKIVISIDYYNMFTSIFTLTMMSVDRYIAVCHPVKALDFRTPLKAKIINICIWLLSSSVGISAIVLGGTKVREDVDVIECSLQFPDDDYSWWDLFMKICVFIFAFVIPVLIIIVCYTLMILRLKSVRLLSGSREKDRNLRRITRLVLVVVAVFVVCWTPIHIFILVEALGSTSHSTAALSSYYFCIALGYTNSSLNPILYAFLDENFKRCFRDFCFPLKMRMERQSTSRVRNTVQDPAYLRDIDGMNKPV
UniProt P41145, whole entry Y139A, looked up: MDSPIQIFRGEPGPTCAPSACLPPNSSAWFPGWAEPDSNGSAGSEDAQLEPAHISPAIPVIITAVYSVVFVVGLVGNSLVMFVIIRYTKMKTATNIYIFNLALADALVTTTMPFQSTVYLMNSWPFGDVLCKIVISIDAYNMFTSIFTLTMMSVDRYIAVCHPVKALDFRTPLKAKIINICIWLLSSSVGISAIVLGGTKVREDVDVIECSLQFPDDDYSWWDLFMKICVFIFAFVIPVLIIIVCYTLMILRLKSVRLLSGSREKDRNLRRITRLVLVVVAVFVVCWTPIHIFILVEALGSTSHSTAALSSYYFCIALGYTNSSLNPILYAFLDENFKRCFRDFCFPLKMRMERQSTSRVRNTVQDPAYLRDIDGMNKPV

O=C(Nc1ccc(Cl)c(C(F)(F)F)c1)[C@H]1CC=C[C@H]2CCN(Cc3ccccc3)C(=O)[C@@H]12 [1xx]
pKi [1]: 6.66 | pKi [2]: 7.52 | pKi [3]: 8.40 | pKi [4]: 6.96 | pKi [5]: 6.41 | pKi [6]: 7.19 | pKi [7]: 6.66 | pKi [8]: 6.32 | pKi [9]: 6.05 | pKi [10]: 6.74 | pKi [11]: 7.00 | pKi [12]: 7.29 | pKi [13]: 7.70 | pKi [14]: 6.74 | pKi [15]: 6.24 | pKi [16]: 5.26 | pKi [17]: 6.28 | pKi [18]: 6.46 | pKi [19]: 6.52 | pKi [20]: 6.41 | pKi [21]: 6.47 | pKi [22]: 5.66 | pKi [23]: 6.29 | pKi [24]: 5.38 | pKi [25]: 6.33 | pKi [26]: 6.26 | pEC50 [27]: 7.29 | pEC50 [28]: 8.04 | pEC50 [29]: 7.19 | pEC50 [30]: 6.05 | pEC50 [31]: 6.64 | pEC50 [32]: 5.77 | pEC50 [33]: 6.46 | pEC50 [34]: 6.40 | pEC50 [35]: 7.10 | pEC50 [36]: 5.89 | pEC50 [37]: 6.66 | pEC50 [38]: 7.55 | pEC50 [39]: 7.37 | pEC50 [40]: 7.14 | pEC50 [41]: 6.23 | pEC50 [42]: 6.85 | pEC50 [43]: 6.40 | pEC50 [44]: 6.85 | pEC50 [45]: 6.44 | pEC50 [46]: 7.15 | pEC50 [47]: 6.49 | pEC50 [48]: 7.24 | pEC50 [49]: 6.52 | pEC50 [50]: 6.82
